Structures are written as SMILES. The entries are a selection whose mix differs from that of the whole data set. Some tests of the compounds listed are not included; inactive here does not mean inactive elsewhere. The source made the active and inactive calls.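 How the source made its calls: active means primary screen hit whose fluorescence ratio, in both repeats, exceeds the weak agonist control mean by 3 SD; inactive means the rest.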

The test system of the experiment is TRPC4 (transient receptor potential cation channel C4 beta), mouse. In words: potentiation of DAMGO EC20 TRPC4 response – cell-based, second round, Fluo-4, HEK293 TRPC4beta/mu-opioid, 1 µM, confirmation (AID 2554). Particulars: DAMGO EC20, Fluo-4 calcium flux, at 1 µM.
Consider `CN(C)c1ccc(C(=O)NCC2(N(C)C)CCCCC2)cc1`, for which the outcome was inactive.

The values above are taken from PubChem BioAssay AID2554 (Johns Hopkins Ion Channel Center, 2010).
